Literature values in patent US11535824B2, “Nuclear transfer” (Sung Kwang Medical Foundation, priority 2015, dated 2022).

Target: T1, G9a (KMT1C) (Homo sapiens, UniProt Q96KQ7)
T1 sequence (Q96KQ7 1-1210): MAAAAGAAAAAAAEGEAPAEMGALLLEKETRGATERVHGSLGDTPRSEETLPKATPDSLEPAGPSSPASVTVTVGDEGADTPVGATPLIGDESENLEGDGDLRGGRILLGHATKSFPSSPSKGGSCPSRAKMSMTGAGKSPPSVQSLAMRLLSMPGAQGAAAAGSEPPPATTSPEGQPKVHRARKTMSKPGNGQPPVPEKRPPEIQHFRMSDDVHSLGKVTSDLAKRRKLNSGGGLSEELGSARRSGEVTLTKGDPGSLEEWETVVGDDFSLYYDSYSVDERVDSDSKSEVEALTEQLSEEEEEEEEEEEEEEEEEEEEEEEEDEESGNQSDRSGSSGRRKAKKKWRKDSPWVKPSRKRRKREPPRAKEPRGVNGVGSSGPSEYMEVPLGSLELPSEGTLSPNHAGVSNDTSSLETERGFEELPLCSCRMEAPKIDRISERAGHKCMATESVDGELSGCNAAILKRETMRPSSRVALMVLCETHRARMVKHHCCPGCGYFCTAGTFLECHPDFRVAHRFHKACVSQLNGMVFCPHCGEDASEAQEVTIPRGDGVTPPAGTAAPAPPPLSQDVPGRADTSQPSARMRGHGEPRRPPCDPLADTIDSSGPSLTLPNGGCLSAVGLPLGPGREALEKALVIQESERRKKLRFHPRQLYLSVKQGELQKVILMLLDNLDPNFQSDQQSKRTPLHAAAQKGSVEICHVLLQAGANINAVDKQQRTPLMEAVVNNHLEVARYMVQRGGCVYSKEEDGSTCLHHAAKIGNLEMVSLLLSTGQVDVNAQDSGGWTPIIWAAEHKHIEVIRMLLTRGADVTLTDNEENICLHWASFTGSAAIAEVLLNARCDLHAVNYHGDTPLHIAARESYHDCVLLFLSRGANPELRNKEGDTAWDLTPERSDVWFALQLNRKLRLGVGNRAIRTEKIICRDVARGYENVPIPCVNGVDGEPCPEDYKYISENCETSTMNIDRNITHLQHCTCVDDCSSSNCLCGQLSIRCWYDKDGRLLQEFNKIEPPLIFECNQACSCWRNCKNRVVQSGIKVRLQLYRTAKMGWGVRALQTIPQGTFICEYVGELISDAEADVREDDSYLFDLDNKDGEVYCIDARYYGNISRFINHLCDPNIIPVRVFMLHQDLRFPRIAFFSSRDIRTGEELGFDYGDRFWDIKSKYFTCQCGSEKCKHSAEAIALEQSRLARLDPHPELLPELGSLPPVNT
Conditions: unit inferred; cited from earlier work

COc1cc2c(NC3CCN(C)CC3)nc(N3CCCN(C)CC3)nc2cc1OCCCN(C)C [UNC0224]
IC50: 15 nM
